{
  "source": "patent US5889151A",
  "about": "(priority 1989, dated 1999)",
  "molecules": {"B1": {"name": "Human beta IFN: human beta interferon preparation (protein, UniProt P01574 22-187, looked up)", "Interferon beta": "MSYNLLGFLQRSSNFQCQKLLWQLNGRLEYCLKDRMNFDIPEEIKQLQQFQKEDAALTIYEMLQNIFAIFRQDSSSTGWNETIVENLLANVYHQINHLKTVLEEKLEKEDFTRGKLMSSLHLKRYYGRILHYLKAKEYSHCAWTIVRVEILRNFYFINRLTGYLRN"}},
  "key": {"mouse parental BTG cells": {"test_system": "mouse parental BTG cells", "format": "cell-based"}, "human Wish cells": {"test_system": "human Wish cells", "format": "cell-based"}, "transfected 10B H7 clone": {"test_system": "transfected 10B H7 clone", "format": "cell-based, mouse"}},
  "data": [
    {"molecule": "B1", "values": [
      {"measurement": "Antiviral activities of interferon preparations tested on BTG", "setting": "mouse parental BTG cells", "result": 200, "unit": "units/ml"},
      {"measurement": "Antiviral activities of interferon preparations tested on WISH", "setting": "human Wish cells", "result": "2,7 × 10^6 units/ml"},
      {"measurement": "Antiviral activities of interferon preparations tested on 10BH7", "setting": "transfected 10B H7 clone", "result": "1,6 × 10^3 units/ml"},
      {"measurement": "RATIO 10BH7/BTG", "setting": "transfected 10B H7 clone", "result": 8}
    ]}
  ]
}
